Measured values from patent publication US20220054643A1, “SAPONIN CONJUGATED TO EPITOPE-BINDING PROTEINS” (priority 2018, published 2022).
pIC50: −log10 of the molar value.

Experiments:
[1] = tested on: HSP27 mRNA in A2058 cells; experiment: HSP27 gene silencing in cells (HSP27 mRNA expression); format: cell-based, human; details: for pIC50: A2058, conjugate alone
[2] = tested on: HSP27 mRNA; experiment: A431 xenograft mouse tumor model, HSP27 gene silencing in tumors (qPCR); format: in vivo; details: 1 dosing 30 mg/kg; tumors 72 h after first dosing
Experimental: Dosings started at day 12 when tumors reached ˜150 mm^3 in size and tumor samples were collected at 72 h after the first dosing and analysed for HSP27 gene expression compared to control gene mRNA expression levels (reference genes). […] Compared to the vehicle control tumors, a reduction of 40% HSP27 gene silencing was observed.
Dosing started at day 12 when tumors reached ˜150 mm^3 in size and HSP27 mRNA expression was determined. For this, tumor samples were collected at 72h after the first dosing and analysed for HSP27 gene expression levels compared to cellular control mRNA expression levels (reference genes).
The mouse study was performed at CrownBio (China) according to standard protocols and procedures. Model: Subcutaneous A431 Human Epidermoid Carcinoma Xenograft Model in female BALB/c nude Mice. Tumor volume was monitored and tumor samples were collected for gene silencing analysis (see below)

[3] = tested on: HSP27 mRNA in A431 cells; experiment: HSP27 gene silencing in cells (HSP27 mRNA expression); format: cell-based, human; details: for pIC50: A431, agent alone
[4] = tested on: human A431 tumor cells; experiment: A431 xenograft mouse tumor model, tumor volume; format: in vivo
Experimental: Female Balb/c nude mice were injected subcutaneously with a suspension of human A431 tumor cells. Under the skin of the mice, a human epidermal carcinoma developed in the xenograft animal tumor model. After injection of the tumor cells, the xenograft tumor was allowed to develop to a size of approximately 170-180 mm^3. The A431 tumor cells have the following characteristics: high EGFR expressors, medium CD71 expressors, low HER2 expressors.
In Table A, the results of the treatment of control mice and tumor-bearing mice are presented. […] The ADCs trastuzumab-saporin (covalent conjugate) and anti-CD71 mAb (OKT-9, IgG)-saporin (covalent conjugate) were tested for their tumor-attacking efficacy in the mice, measured as tumor volume in time after start of the treatment with the ADCs. […]
The conjugate was tested in a A431 (EGFR^++) xenograph mouse tumor model for EGFR tumor targeted cell killing as illustrated in FIG. 47. Dosings started at day 12 when tumors reached ˜150 mm^3 in size and tumor volume was determined after every dosing.
The mouse study was performed at CrownBio (China) according to standard protocols and procedures. […] Tumor volume was monitored and tumor samples were collected for gene silencing analysis (see below)

| Substance | pIC50 [1] | reduction in HSP27 mRNA expression compared to single dosing of mono-conjugates [2] | reduction of HSP27 gene expression compared to vehicle control [2] | pIC50 [3] | other results |
| --- | --- | --- | --- | --- | --- |
| cetuximab-Cys-(SO1861-L-trifunctional linker-L-HSP27BNA)^3,7: SO1861-L-trifunctional linker-L-HSP27BNA conjugated with its third arm to cysteine residues of cetuximab | 7.00 | 40% | 25% | 8.70 |  |
| cetuximab-(Cys-L-SO1861)^3,8: SO1861-EMCH conjugated via cysteine residues to cetuximab |  |  |  |  | HSP27 gene silencing activity ([1]; A2058 (EGFR-), agent titrated + 100 nM cetuximab-(Lys-L-HSP27BNA)^4): no gene silencing activity was observed; IC50 HSP27 gene silencing ([3]; A431 (EGFR++), agent titrated + fixed 100 nM cetuximab-(Lys-L-HSP27BNA)^4): strong HSP27 gene silencing |
| cetuximab-(Cys-L-SO1861)^3,8(Lys-L-HSP27BNA)^3,8: cetuximab with SO1861 (labile) and HSP27BNA oligo (labile) | < 7.00 |  |  | 8.52 |  |
| cetuximab-(Cys-L-SO1861)^3,9(Lys-L-HSP27BNA)^1,8: cetuximab with SO1861-EMCH (Cys, DAR 3,9) and HSP27BNA (Lys, labile, DAR 1,8) |  | 40% | 25% |  |  |
| Cetuximab-SO1861: cetuximab covalently conjugated with SO1861 via EMCH to reduced cysteines |  |  |  |  | tumor size (volume in mm^3) ([4]; A431 xenograft, female Balb/c nude mice, ~170-180 mm^3 at start, sub-optimal ADC dose): 2000 mm^3; outcome (death/euthanasia or survival) ([4]; same study as tumor size, Table A): death/euthanasia |
